Data published in patent publication US8198405B2, “Stabilized alpha helical peptides and uses thereof” (Dana-Farber Cancer Institute, Inc., priority 2003, dated 2012).

Chains of the proteins cited; added tags and fusions are not shown. Residues count along the entry.
UniProt P10415, 1-218 limits assumed: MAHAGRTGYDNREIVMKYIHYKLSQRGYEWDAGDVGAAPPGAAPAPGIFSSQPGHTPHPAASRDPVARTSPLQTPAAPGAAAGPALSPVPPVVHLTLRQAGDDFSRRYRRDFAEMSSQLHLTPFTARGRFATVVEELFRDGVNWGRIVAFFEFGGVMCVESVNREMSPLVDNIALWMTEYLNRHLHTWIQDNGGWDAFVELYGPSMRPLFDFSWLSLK

What was measured:
GST-BCL-2 = molecular target: T1, GST-BCL-2 (Homo sapiens, UniProt P10415); experiment: Fluorescence polarization competitive binding (displacement of FITC-BID BH3)
T1 construct: containing the plasmid encoding C-terminal deleted GST-BCL-2; made in house; host or cells: Escherichia coli BL21 (DE3)

BCL-2 = molecular target: T2, BCL-2 (Homo sapiens, UniProt P10415); experiment: Fluorescence polarization direct binding assay
T2 construct: containing the plasmid encoding C-terminal deleted GST-BCL-2; made in house; host or cells: Escherichia coli BL21 (DE3)

IC50 (GST-BCL-2): 0.838 µM
Kd (BCL-2): 0.269 µM
SMILES: CCCC[C@H](NC(=O)[C@H](CO)NC(=O)[C@H](CC(=O)O)NC(=O)CNC(=O)[C@@H](NC(=O)[C@H](CCC(N)=O)NC(=O)[C@H](C)NC(=O)[C@H](CC(C)C)NC(=O)[C@H](Cc1c[nH]cn1)NC(=O)[C@H](CCCNC(=N)N)NC(=O)[C@H](C)NC(=O)[C@@H](NC(=O)[C@H](CC(N)=O)NC(=O)[C@H](CCCNC(=N)N)NC(=O)[C@@H](NC(=O)[C@@H](NC(=O)[C@H](CC(=O)O)NC(=O)[C@@H](N)CCC(=O)O)[C@@H](C)CC)[C@@H](C)CC)[C@@H](C)CC)C(C)C)C(=O)N[C@@H](CC(=O)O)C(=O)N[C@@H](CCCNC(=N)N)C(=O)N[C@@H](CO)C(=O)N[C@H](C(=O)N[C@@H](Cc1c[nH]c2ccccc12)C(N)=O)[C@@H](C)CC [BID BH3, reference compound]
